Results as given in ChEMBL document CHEMBL3862036, “Biphenyl Pyridazinone Derivatives as Inhaled PDE4 Inhibitors: Structural Biology and Structure-Activity Relationships” (J Med Chem, 2016).

Assays:
[1] = organism: Homo sapiens; experiment: Ratio of IC50 for PDE4 in PBMC (unknown origin) assessed as reduction in LPS-induced TNFalpha production to IC50 for human recombinant PDE4B1 assessed as reduction in [3H]cAMP hydrolysis
[2] = organism: Homo sapiens; experiment: Ratio of IC50 for inhibition of PDE4 in human whole blood assessed as reduction in LPS-induced TNFalpha production to IC50 for human recombinant PDE4B1 assessed as reduction in [3H]cAMP hydrolysis; format: tissue-based

Ratio IC50 [1] | SMILES | Ratio IC50 [2]
100 to 1000 | CCn1nc(-c2cccc(-c3cc(C(=O)O)ccc3F)c2)cc(NC(=O)Nc2c(Cl)cncc2Cl)c1=O | 
100 to 1000 | CCn1nc(-c2cccc(-c3ccc(O)c(F)c3)c2)cc(NC(=O)Nc2c(Cl)cncc2Cl)c1=O | 
100 to 1000 | CCn1nc(-c2cccc(-c3ccc(O)cc3F)c2)cc(NC(=O)Nc2c(Cl)cncc2Cl)c1=O | 
 | CCn1nc(-c2cccc(-c3cccc(O)c3)c2)cc(NC(=O)Nc2c(Cl)cncc2Cl)c1=O | 100
100 to 1000 | CCn1nc(-c2cccc(-c3ccc(F)c(C(=O)O)c3)c2)cc(NC(=O)Nc2c(Cl)cncc2Cl)c1=O | 
